How the values were obtained:
[1] = tested on: Class I/IIb HDACs; test: class-distinguishing fluorogenic substrates whole-cell assay, class I/IIb, HT-29; assay type: cell-based; conditions: HT-29 whole cell assay, control
[2] = tested on: Class IIa HDACs; test: class-distinguishing fluorogenic substrates whole-cell assay, class IIa, HT-29; assay type: cell-based; conditions: HT-29 whole cell assay, control

## O=C(CCCCCCC(=O)Nc1ccccc1)NO [SAHA]
[1]
  activity against class-I/IIb HDACs: modest activity
[2]
  activity against class-IIa HDACs: not active

From article PMC8919062 (European journal of medicinal chemistry, 2021)
